Earlier results as cited in patent US20160271085A1, “TREATMENT OF AMYOTROPHIC LATERAL SCLEROSIS WITH LACTATE” (priority 2015, published 2016).

Conditions: in vivo

CC(O)C(=O)O (stereo not shown) [lactate]
lactate in the circulation removed by the liver: approximately 70%
